# Ab-14 light chain CDR variants: yeast mating affinities

Source: Engelhart et al. 2022 (doi:10.1038/s41597-022-01779-4), MIT Lincoln Laboratory and A-Alpha Bio; data file from the FLAb repository.

The target is the same throughout: PDVDLGDISGINAS, from the HR2 region of SARS-CoV-2 spike.

Parent scFv Ab-14: VH joined to VL by a 15-residue (Gly4Ser)3 linker. Changes lie in the light chain CDRs alone.
VH: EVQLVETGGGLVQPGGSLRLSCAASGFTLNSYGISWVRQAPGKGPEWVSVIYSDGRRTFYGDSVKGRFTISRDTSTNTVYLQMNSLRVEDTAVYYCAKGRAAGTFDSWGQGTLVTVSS
VL: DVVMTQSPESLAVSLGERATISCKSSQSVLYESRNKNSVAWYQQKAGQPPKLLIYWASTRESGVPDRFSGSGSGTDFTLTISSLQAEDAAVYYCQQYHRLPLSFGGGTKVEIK

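The starting antibody came from a phage panning campaign against this peptide. The library (AAYL50) carries one to three amino acid substitutions per variant, with no insertions or deletions. In AlphaSeq, yeast of one mating type display the scFv and yeast of the other type display the target. The frequency of each diploid, read from paired DNA barcodes, reflects how well the two displayed proteins bind. Each replicate has its own calibration line, from reference interactions of the BCL2 family. Mating was done three times.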

Each variant is given by its three light chain CDRs, as the data file delimits them; those of the parent are KSSQSVLYESRNKNSVA, WASTRES, QQYHRLPLS. All variants listed here change V29 of the VL, counted from its first residue. The read-out is the apparent dissociation constant on a log10 scale (nM): the lower, the stronger. The mean shown is taken over the replicates in which the pair was detected. "no signal" marks a missing value. The strain was present, yet no cells mated with the target were sequenced in any replicate, which points to weak or no binding. As a blank, each scFv also met three strains without target: over library AAYL50, 18% of these pairings were detected, typically at 4.19 and seldom below 2.99. Also given: how often the same scFv was detected with the empty control strains.

CDR-L1,CDR-L2,CDR-L3,"log10 Kd (nM), mean",replicates with signal,empty controls
KSSQSWLYESWNHNSVA,WASTRES,QQYHRLPLS,1.76,3 of 3,0 of 9
KSSQSHLYESRNKNSVA,WASSRES,QQYHRLPLS,4.78,1 of 3,2 of 9
KSSQSILYESRNKFSVA,WASTRES,QQYHMLPLS,2.00,3 of 3,0 of 9
KSSQSCLYESRNKNVVA,WASTRES,QAYHRLPLS,4.58,1 of 3,0 of 9
KSSQSTTYESRNKNSDA,WASTRES,QQYHRLPLS,no signal,0 of 3,2 of 9
QSSQSCLYLSRNKNSVA,WASTRES,QQYHRLPLS,1.81,3 of 3,0 of 9
KSSQSSLYESRNKNSVA,WASTRES,VQYHLLPLS,4.06,2 of 3,3 of 9
KSSSSQLYESRNKNCVA,WASTRES,QQYHRLPLS,1.83,3 of 3,2 of 9
KSSQSGLYESTNKNSVA,WASTRES,QHYHRLPLS,0.78,3 of 3,4 of 9
KSSQICLYESRNKNSVA,WASTRCS,QQYHRLPLS,2.58,1 of 3,0 of 9
KSSQSWLYESRNKNSVA,WASQRES,QQYHRLPAS,2.18,3 of 3,5 of 9
KSSYSHLYESRNKNSVA,WASTRES,QQYHREPLS,5.38,1 of 3,2 of 9
KSSQSELMESRNKNSVA,WASPRES,QQYHRLPLS,3.14,1 of 3,2 of 9
YSSQSWLYESRNKNSVA,WASNRES,QQYHRLPLS,2.71,2 of 3,0 of 9
KSSQSELYESRNKNSVA,WYSTRES,NQYHRLPLS,no signal,0 of 3,3 of 9
KSSQSYLYESRNKNSCA,WASTRES,QQYHRLPES,2.93,1 of 3,0 of 9
KSDQSMLYESRNKNSVA,WASTRES,QQYWRLPLS,0.30,3 of 3,1 of 9
KSSQSELYESRNKNSVA,WASKRES,QQYFRLPLS,0.33,3 of 3,1 of 9
KSSQSCLFESRNKNSVA,WASTRES,QQYHRLPLS,0.89,3 of 3,1 of 9
KSSQSILYESRNKNKVA,WASTRES,QQYWRLPLS,no signal,0 of 3,0 of 9
KSSQSRLYESRNKNSPA,WASTRES,QQYHRLPIS,4.17,1 of 3,5 of 9
KSSQSYLYESRNKNSVV,WASTRES,EQYHRLPLS,no signal,0 of 3,3 of 9
KSSQSPLKESRNKNSVA,WASTRES,QQYHRLPLS,1.63,3 of 3,0 of 9
KSSQSTLYESRNTNQVA,WASTRES,QQYHRLPLS,1.45,3 of 3,0 of 9
KSSQSQLKEGRNKNSVA,WASTRES,QQYHRLPLS,1.21,3 of 3,0 of 9
KSKQSQLYESRNINSVA,WASTRES,QQYHRLPLS,1.19,3 of 3,0 of 9
KSSQSKLYESRNKNSVA,WASTRES,QQYYRLPPS,no signal,0 of 3,0 of 9
KSSQSGLVESRNKNSVA,WASTRES,QQYHRLPAS,1.39,3 of 3,0 of 9
KSSQSMLYESRNKNSVA,WASTREE,HQYHRLPLS,no signal,0 of 3,1 of 9
KSSQSCGYESRNKNSVA,WASTRES,QQYHRLPLP,no signal,0 of 3,1 of 9
KSSQSPLYESRNKNSVA,WASTRES,QQYHRLPLS,0.96,3 of 3,4 of 9
KSSQSYLYESRNKNSVA,WASTVES,QQYHRLPLC,3.43,2 of 3,3 of 9
ESSQSFLYEWRNKNSVA,WASTRES,QQYHRLPLS,4.07,3 of 3,2 of 9
KSSQSNLYESRNKNSVA,WASTRES,QAYHRGPLS,3.82,2 of 3,1 of 9
KSSPSGLYESRVKNSVA,WASTRES,QQYHRLPLS,no signal,0 of 3,0 of 9
KSSKSGLYESRNKNSVA,WASTRES,QCYHRLPLS,1.66,3 of 3,2 of 9
KSSQSALQESRIKNSVA,WASTRES,QQYHRLPLS,1.60,3 of 3,0 of 9
KSSQSALYESRNKNSVA,WASTRES,QQYHRLPLS,1.32,3 of 3,0 of 9
KVSQSILYESRNKNSVA,WASTRES,QQYHRLPLS,-0.15,3 of 3,2 of 9
KSSQSPLYESKNKNSVA,WISTRES,QQYHRLPLS,3.29,1 of 3,0 of 9
KSSQSPLYDSRNKNSVA,WASTRES,QQYHFLPLS,1.50,3 of 3,1 of 9
KSSQSMLYESRNKNCVA,KASTRES,QQYHRLPLS,0.96,3 of 3,0 of 9
KSSQSNLYESRNDNSVA,WASTRES,QQYHRLPLV,1.03,3 of 3,0 of 9
KSSQSPLYESRNKNSVA,WASTRES,DQYCRLPLS,4.44,2 of 3,2 of 9
KSSQSRLYESRNKNSVA,WASTRES,QQYHRLPLL,3.16,3 of 3,1 of 9
KSSQSPEYESRNKNSVA,WASFRES,QQYHRLPLS,1.02,3 of 3,1 of 9
KSSQSYLYESRNRNSVA,WASTDES,QQYHRLPLS,4.92,2 of 3,4 of 9
KSSQSWLYESRNKNSVA,WASTRES,QQVHRLPRS,1.42,3 of 3,1 of 9
KSSQSELYESRNKNSVA,WASTRES,QQYHRLPLT,0.51,3 of 3,0 of 9
PSSQSELYESRNKNSVF,WASTRES,QQYHRLPLS,4.52,2 of 3,4 of 9
KSSQSMLYESRNKNSVA,RASTRVS,QQYHRLPLS,0.23,3 of 3,2 of 9
KSSQSYLYESRNKNSVA,WASTLES,QQYHRLPLS,3.04,3 of 3,3 of 9
KSSQSKLYHSRNDNSVA,WASTRES,QQYHRLPLS,2.67,3 of 3,1 of 9
KSSQSYLYESYNKNSVA,WASTRES,QQYHRLPYS,3.44,1 of 3,0 of 9
KSSQSCLKESRNKNSVA,WASTREE,QQYHRLPLS,no signal,0 of 3,0 of 9
KSSQSWLYESRNKNSVA,WASTRET,QDYHRLPLS,0.97,3 of 3,1 of 9
KSSQSQLYESRNKNSVA,WASTLES,QQYGRLPLS,2.27,1 of 3,0 of 9
KSSQSTLYESRHKNSVA,WASTRES,QQYHSLPLS,1.42,3 of 3,2 of 9
KSSQSTLYESRNNNSVA,WASCRES,QQYHRLPLS,1.77,3 of 3,1 of 9
KSSQSNLYERRNKNTVA,WASTRES,QQYHRLPLS,4.11,1 of 3,1 of 9
KSSQSFLYESRNKNSVA,WAITRES,LQYHRLPLS,no signal,0 of 3,1 of 9
KFMQSTLYESRNKNSVA,WASTRES,QQYHRLPLS,0.17,3 of 3,1 of 9
KSSQSDLYESRNKNSVA,WASTRES,QQYRILPLS,0.53,3 of 3,0 of 9
KSSQSMLCESRNFNSVA,WASTRES,QQYHRLPLS,2.11,3 of 3,0 of 9
KSSQSGLYESRNKNSVA,SASTRES,QQYHRLPLS,0.49,3 of 3,0 of 9
KSSQSIIYESRNKNSVA,WASTKES,QQYHRLPLS,2.28,3 of 3,2 of 9
KSSQKATYESRNKNSVA,WASTRES,QQYHRLPLS,1.22,3 of 3,2 of 9
KSSQSMLYCSRNQNSVA,WASTRES,QQYHRLPLS,1.73,3 of 3,2 of 9
KSSQSSLYESRNKNSVS,WASFRES,QQYHRLPLS,no signal,0 of 3,2 of 9
KSSSSLLYESRNKNSVA,QASTRES,QQYHRLPLS,-0.11,3 of 3,4 of 9
KSSQSPLYSSRNKNSVA,WASTRES,QQYHRTPLS,4.02,2 of 3,2 of 9
KSSQSSLYESRSKNSVA,WASTRIS,QQYHRLPLS,0.52,3 of 3,0 of 9
KSSQSNLYESRNKNSVA,WASQRES,QQYHRLFLS,1.80,3 of 3,0 of 9
KSSQSELYESRNKNSVA,WMSTRES,QQYHRLPLS,1.45,3 of 3,3 of 9
KSSQSHLYESRNKNSVA,WASTRES,QQYIRLPLK,no signal,0 of 3,0 of 9
KSSQSYLYESRNKNMVA,WASHRES,QQYHRLPLS,2.16,3 of 3,1 of 9
KSSQSPLYESYPKNSVA,WASTRES,QQYHRLPLS,1.00,3 of 3,0 of 9
KSSQSWLYESRNKNSVA,WASTRES,QQYHRLPLS,5.06,2 of 3,1 of 9
KSSQSELYESRNKNSVA,WASTRIS,QNYHRLPLS,1.03,3 of 3,6 of 9

Repeated from above, the 7 best binders with a signal in all replicates:

CDR-L1,CDR-L2,CDR-L3,"log10 Kd (nM), mean",replicates with signal,empty controls
KVSQSILYESRNKNSVA,WASTRES,QQYHRLPLS,-0.15,3 of 3,2 of 9
KSSSSLLYESRNKNSVA,QASTRES,QQYHRLPLS,-0.11,3 of 3,4 of 9
KFMQSTLYESRNKNSVA,WASTRES,QQYHRLPLS,0.17,3 of 3,1 of 9
KSSQSMLYESRNKNSVA,RASTRVS,QQYHRLPLS,0.23,3 of 3,2 of 9
KSDQSMLYESRNKNSVA,WASTRES,QQYWRLPLS,0.30,3 of 3,1 of 9
KSSQSELYESRNKNSVA,WASKRES,QQYFRLPLS,0.33,3 of 3,1 of 9
KSSQSGLYESRNKNSVA,SASTRES,QQYHRLPLS,0.49,3 of 3,0 of 9

Parent in this assay: reference entry 0.65, copy in this library 1.68.